# Antibody variant affinities, Ab-14 light chain, assay B

Values reported by Li et al. 2023, doi:10.1038/s41467-023-39022-2 (FLAb copy).

The target is the same throughout: PDVDLGDISGINAS, from the HR2 region of SARS-CoV-2 spike.

Parent scFv Ab-14: VH joined to VL by the linker GGGGSGGGGSGGGGS. Changes lie in the light chain CDRs alone.
VH: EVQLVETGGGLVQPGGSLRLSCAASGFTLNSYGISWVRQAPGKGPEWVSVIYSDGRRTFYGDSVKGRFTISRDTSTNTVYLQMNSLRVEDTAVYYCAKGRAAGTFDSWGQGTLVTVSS
VL: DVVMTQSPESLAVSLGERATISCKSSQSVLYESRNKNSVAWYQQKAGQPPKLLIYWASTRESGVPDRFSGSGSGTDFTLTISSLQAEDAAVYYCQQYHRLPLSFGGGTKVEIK

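The parent was found by panning a naive human phage display library on the peptide. This is the validation round: designs drawn from the data on random variants, tested in the same kind of assay. Several design methods are mixed in this list. AlphaSeq pools MATa yeast showing the antibodies with MATalpha yeast showing the peptide. After mating in shaken culture at 30 °C for 16 h, diploids were selected and their barcode pairs sequenced. A regression on co-assayed BCL2-family reference pairs converts the normalised counts of each replicate to an apparent Kd. Mating was done six times.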

The whole VL of each variant is written out. Scale: log10 of Kd in nM, estimated from mating counts; low values are strong binders. A mean of the replicates is given; it leaves out those without a signal. "nd" marks a missing value. The strain was present, yet no cells mated with the target were sequenced in any replicate, which points to weak or no binding. Background: pairings of all light chain designs with three empty control strains gave a value in 4% of cases (median 2.64, 5th percentile 1.59). Values in that range, when seen in few replicates, are hard to tell from nonspecific mating. The authors' rule: three or more of the six replicates give a measured affinity, fewer mean a poor binder. A sequence measured in both rounds can read differently, since the two assays cover different ranges.

VL	mean, log10 nM	seen in
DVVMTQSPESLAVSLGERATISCKLDSAEQHGTNQNSAMAWYQQKAGQPPKLLIYSASVSTQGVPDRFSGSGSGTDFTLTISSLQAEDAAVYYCQQYSRLPLSFGGGTKVEIK	1.38	5 of 6
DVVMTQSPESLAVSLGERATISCKLYQSVLYESRNKNSVAWYQQKAGQPPKLLIYDASTRESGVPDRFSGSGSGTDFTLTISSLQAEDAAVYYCQQYHRLPLSFGGGTKVEIK	0.17	6 of 6
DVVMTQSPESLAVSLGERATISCKESQSWDYESRNKNSVAWYQQKAGQPPKLLIYGASTRESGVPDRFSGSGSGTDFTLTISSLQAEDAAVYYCQQYHRLPLSFGGGTKVEIK	-0.12	6 of 6
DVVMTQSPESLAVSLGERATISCKSSQSVLYESRNKNSVAWYQQKAGQPPKLLIYWASTREQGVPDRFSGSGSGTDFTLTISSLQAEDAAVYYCQAQHRLPLSFGGGTKVEIK	1.84	1 of 6
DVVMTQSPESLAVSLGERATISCKSSQSVLYNSRHKNSVAWYQQKAGQPPKLLIYWASTRESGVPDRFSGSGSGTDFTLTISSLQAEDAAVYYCGQCQRLPLCFGGGTKVEIK	nd	0 of 6
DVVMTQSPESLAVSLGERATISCKSMQSVLDESRNKNSVAWYQQKAGQPPKLLIYWASTRESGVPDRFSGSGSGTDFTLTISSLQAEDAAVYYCQQYRSLPLSFGGGTKVEIK	2.39	3 of 6
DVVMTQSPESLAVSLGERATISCKSSQSVLYESRNKNSVAWYQQKAGQPPKLLIYYASTRESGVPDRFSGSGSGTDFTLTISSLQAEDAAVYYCQQYHYLPLSFGGGTKVEIK	nd	0 of 6
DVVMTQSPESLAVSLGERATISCKSSQSVLYESRNKNSVAWYQQKAGQPPKLLIYWASTRESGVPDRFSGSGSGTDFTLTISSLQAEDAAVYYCQQYHRLHLSFGGGTKVEIK	nd	0 of 6
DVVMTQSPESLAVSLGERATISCKSSQSVLYESRNKNSVAWYQQKAGQPPKLLIYDASTRESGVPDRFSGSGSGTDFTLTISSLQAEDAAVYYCQQYCRLPLAFGGGTKVEIK	nd	0 of 6
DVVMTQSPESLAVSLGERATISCIIAENSDDITEKQNSIAWYQQKAGQPPKLLIYETSQVTQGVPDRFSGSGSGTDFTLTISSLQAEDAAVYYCQQYHLLPLAFGGGTKVEIK	2.71	4 of 6
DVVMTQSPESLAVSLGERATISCKLQMLELYEGRWKNSVAWYQQKAGQPPKLLIYSASTRESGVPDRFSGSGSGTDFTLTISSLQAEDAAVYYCQQYHRLPLSFGGGTKVEIK	0.71	6 of 6
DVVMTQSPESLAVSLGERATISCKLQQSQLYESRNKNSVAWYQQKAGQPPKLLIYNASTREDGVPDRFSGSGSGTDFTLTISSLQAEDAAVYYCQQYHRLPLSFGGGTKVEIK	0.52	6 of 6
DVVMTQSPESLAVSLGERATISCKLSQSYLYEQRNKNSVAWYQQKAGQPPKLLIYNASTRLSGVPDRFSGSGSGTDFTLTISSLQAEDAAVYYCQQYHRLPLSFGGGTKVEIK	0.06	6 of 6
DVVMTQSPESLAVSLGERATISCKLPQSALYESRNKNSVAWYQQKAGQPPKLLIYNASTRESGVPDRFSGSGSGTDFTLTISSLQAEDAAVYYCQQYHRLPLSFGGGTKVEIK	-0.54	6 of 6
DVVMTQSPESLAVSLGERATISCKISQMVRVGSTHSNSIAWYQQKAGQPPKLLIYEEETRAKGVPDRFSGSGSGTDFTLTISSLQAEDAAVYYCQQYHRLPLSFGGGTKVEIK	1.89	1 of 6
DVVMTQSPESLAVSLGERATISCKSSQSVLYESRNKNNVAWYQQKAGQPPKLLIYHASTRESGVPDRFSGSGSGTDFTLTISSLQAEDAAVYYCQQYHRLPLSFGGGTKVEIK	0.36	6 of 6
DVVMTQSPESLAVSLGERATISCKMSESELYEDRNQNSVAWYQQKAGQPPKLLIYSASQRLEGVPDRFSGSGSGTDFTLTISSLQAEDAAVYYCQQYHRLPLSFGGGTKVEIK	-0.01	6 of 6
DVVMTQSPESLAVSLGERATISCHISQMVMYGTCNKNNVAWYQQKAGQPPKLLIYQVSLREEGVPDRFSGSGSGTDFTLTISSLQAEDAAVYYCQQYHRLPLSFGGGTKVEIK	1.68	6 of 6
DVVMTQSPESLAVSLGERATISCKLSQAVNMTGKNKNSVAWYQQKAGQPPKLLIYELSFREKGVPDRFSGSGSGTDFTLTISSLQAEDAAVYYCQQYERLPLSFGGGTKVEIK	2.07	5 of 6
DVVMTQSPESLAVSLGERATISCKVSQSVLYESRMKNSVAWYQQKAGQPPKLLIYDASTRCSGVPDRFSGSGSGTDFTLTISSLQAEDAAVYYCQQYHRLPLHFGGGTKVEIK	0.24	6 of 6